The results in this text go back to patent US11591325B2, “2-polysubstituted aromatic ring-pyrimidine derivatives, preparation and medical application thereof” (ZHEJIANG UNIVERSITY, priority 2016, dated 2023).

Amino acid sequences for entries named in this document (tags omitted).
UniProt O14757, whole entry: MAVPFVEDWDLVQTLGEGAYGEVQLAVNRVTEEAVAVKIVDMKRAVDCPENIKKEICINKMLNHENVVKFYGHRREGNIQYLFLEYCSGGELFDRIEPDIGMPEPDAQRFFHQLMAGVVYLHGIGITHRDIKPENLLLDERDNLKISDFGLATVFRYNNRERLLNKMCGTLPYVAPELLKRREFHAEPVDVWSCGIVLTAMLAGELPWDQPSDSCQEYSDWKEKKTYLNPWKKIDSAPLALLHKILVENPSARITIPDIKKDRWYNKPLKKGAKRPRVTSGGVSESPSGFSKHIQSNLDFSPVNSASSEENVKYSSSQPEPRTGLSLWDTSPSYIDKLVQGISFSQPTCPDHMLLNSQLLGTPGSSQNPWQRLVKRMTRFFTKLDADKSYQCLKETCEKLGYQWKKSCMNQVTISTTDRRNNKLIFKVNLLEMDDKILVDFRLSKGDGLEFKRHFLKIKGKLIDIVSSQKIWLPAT

Each structure is given as a SMILES string.

This assay addresses Chk1 protein kinase (Homo sapiens, UniProt O14757). The experiment in a line: Chk1 enzyme inhibitory activity, ADP-Glo kit. Format: biochemical. Conditions: read-out: Chk1 IC50, bound with unit printed in the cell, Table 2 >10 μM or <1 μM. In general terms: ADP-Glo turns the ADP formed in a reaction into a luminescent signal.

For the compound `CNc1nc(Nc2cnc(C#N)c(O[C@H]3CCCNC3)c2)ncc1C(F)(F)F`, the IC50 (in general, the point on the concentration scale where inhibition reaches its midpoint) is < 1000 nM. Then `CNc1nc(Nc2cnc(C#N)c(NC3CCNCC3)c2)ncc1C(F)(F)F`, with < 1000 nM; and `CNc1nc(Nc2cnc(C#N)c(O[C@@H]3CCCNC3)c2)ncc1C(F)(F)F` [Compound 47, (R)—N^4-methyl-5-trifluoromethyl-N^2-(2-cyano-3-(piperidin-3-oxy)pyridin-5-yl)-2,4-diaminopyrimidine], with < 1000 nM.
